{"sequences": {"note": "Protein sequences, listed by entry. Tags and fused reporters are not part of them.", "UniProt P33535, whole entry": "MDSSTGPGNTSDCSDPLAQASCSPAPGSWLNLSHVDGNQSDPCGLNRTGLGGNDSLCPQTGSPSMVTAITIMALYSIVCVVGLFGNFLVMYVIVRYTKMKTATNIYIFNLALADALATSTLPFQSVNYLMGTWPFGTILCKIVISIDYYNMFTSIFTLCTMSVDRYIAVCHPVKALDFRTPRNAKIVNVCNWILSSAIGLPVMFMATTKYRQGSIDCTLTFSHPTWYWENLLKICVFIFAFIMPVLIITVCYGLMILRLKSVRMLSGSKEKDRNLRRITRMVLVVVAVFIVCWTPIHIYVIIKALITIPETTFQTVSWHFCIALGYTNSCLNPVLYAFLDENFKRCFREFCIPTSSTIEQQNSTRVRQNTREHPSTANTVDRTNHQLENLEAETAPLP"}, "source": "paper PMC10060287", "about": "(Pharmacological Reports, 2023)", "origin": "cited, not measured here", "target": "µ-opioid receptor (µOR) (Rattus norvegicus, UniProt P33535)", "parameters": "method as in Handa 1981", "conditions": "comparison with G-peptide IC50; b107 ref Handa 1981; cited from earlier work", "data": [{"substance": "DAMGO", "values": [{"measurement": "activity of the reference ligand DAMGO", "value": "subnanomolar activity"}]}]}
